Assay results: US9902714B2, “Quinoxaline derivatives useful as FGFR kinase modulators” (ASTEX THERAPEUTICS LTD, priority 2014, dated 2018)

Protein sequences, listed by entry. Tags and fused reporters are not part of them. Residues count along the entry.
UniProt P35968, 20-1356: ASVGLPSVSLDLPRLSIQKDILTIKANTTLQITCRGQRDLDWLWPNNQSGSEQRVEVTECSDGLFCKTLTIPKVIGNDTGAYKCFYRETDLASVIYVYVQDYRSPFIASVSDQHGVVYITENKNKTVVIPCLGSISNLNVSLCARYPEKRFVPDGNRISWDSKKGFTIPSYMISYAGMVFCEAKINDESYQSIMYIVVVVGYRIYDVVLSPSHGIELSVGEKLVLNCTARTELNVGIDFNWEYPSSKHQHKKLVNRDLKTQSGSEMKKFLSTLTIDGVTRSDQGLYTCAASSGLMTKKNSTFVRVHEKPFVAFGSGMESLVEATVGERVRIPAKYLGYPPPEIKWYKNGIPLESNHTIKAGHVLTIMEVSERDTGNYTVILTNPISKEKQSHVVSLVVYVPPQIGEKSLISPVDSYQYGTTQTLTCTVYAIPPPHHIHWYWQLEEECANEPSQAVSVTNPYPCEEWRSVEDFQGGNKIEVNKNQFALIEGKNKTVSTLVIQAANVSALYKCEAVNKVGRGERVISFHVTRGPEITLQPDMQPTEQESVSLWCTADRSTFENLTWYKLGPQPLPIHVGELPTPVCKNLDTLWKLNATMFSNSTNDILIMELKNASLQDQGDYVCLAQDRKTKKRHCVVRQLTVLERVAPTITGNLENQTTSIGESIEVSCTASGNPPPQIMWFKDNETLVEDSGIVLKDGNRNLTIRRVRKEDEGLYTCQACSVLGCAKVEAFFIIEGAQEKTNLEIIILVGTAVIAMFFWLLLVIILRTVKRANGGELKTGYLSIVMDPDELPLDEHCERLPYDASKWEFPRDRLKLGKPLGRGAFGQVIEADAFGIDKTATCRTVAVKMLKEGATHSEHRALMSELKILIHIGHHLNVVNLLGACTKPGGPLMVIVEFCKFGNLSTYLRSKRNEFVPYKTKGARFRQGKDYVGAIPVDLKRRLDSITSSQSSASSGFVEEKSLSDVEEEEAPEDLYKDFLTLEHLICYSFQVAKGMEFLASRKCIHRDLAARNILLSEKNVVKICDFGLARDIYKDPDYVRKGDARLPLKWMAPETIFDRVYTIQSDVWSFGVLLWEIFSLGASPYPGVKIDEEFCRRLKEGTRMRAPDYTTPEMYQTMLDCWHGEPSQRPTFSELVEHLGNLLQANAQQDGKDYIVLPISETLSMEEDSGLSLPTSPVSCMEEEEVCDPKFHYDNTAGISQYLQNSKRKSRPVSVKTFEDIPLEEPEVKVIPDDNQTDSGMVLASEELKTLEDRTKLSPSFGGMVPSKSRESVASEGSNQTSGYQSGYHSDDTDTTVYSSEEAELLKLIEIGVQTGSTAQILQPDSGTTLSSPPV

Target: VEGFR2 (Homo sapiens (Human), UniProt P35968)
Test: Enzyme binding assay (KINOMEscan) VEGFR2
Method: Enzyme Binding Assays (KINOMEscan®)
Kinase enzyme binding affinities of compounds disclosed herein were determined using the KINOMEscan® technology performed by DiscoveRx Corporation, San Diego, Calif., USA (www.kinomescan.com). Table A3 reports the obtained Kd values (nM), with the Kd being the inhibitor binding constant: […]

For `COc1cc(OC)c2c(c1)N(c1ccc3ncc(-c4cnn(C)c4)nc3c1)CCN(C(C)C)C2` [Compound 1], the Kd was greater than 3.01 µM.
